Reference: patent US6608082B1, “Treatment of erectile dysfunction using isoquinoline compound melanocortin receptor ligands” (Lion Bioscience AG, priority 1998, dated 2003)

The chains behind the UniProt entries cited, without tags or fusion partners.
UniProt Q01726, whole entry: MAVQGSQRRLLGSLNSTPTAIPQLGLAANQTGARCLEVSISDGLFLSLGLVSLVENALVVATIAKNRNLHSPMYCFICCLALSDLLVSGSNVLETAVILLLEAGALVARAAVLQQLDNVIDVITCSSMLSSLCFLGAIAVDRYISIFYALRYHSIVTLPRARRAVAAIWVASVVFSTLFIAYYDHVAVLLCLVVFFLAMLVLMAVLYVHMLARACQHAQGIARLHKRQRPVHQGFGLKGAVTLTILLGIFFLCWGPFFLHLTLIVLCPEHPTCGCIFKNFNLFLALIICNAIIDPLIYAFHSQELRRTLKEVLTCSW
UniProt P32245, whole entry: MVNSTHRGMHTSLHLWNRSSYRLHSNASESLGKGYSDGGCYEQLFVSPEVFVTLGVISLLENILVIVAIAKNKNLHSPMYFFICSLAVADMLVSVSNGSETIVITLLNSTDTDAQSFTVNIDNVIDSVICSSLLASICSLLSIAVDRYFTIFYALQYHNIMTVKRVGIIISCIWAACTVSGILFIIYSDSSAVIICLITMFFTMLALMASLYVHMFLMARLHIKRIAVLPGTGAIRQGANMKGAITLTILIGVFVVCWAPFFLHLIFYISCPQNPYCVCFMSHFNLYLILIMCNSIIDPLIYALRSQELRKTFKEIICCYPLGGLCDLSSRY

Assays:
[1] = biological target: MCR-1 (Homo sapiens, UniProt Q01726); assay: Melanocortin receptor binding assay, competition with 125I-HP 467, HEK 293 cells expressing hMCR-1; details: for IC50: read-out: MC-1 IC50; for MC-1 IC50: TRG 2414 library, inhibition of binding of 125I-HP 467, HEK 293 cells expressing MCR-1
[2] = biological target: MCR-4 (Homo sapiens, UniProt P32245); assay: Melanocortin receptor binding assay, competition with 125I-HP 467, HEK 293 cells expressing hMCR-4; details: for IC50: read-out: MC-4 IC50; for MC-4 IC50: TRG 2414 library, inhibition of binding of 125I-HP 467, HEK 293 cells expressing MCR-4
[3] = TRG 2408 and TRG 2409 libraries, inhibition of 125I-HP 467 binding
[4] = competition with 125I-HP 467, HEK 293 cells expressing MCR-1
[5] = competition with 125I-HP 467, HEK 293 cells expressing MCR-4

Row | SMILES | IC50 [1, 3] [µM] | IC50 [2, 3] [µM] | MC-1 IC50 [1] | MC-4 IC50 [2] | further results
1 | NC[C@@H](N)CCCN1Cc2ccccc2C(CNCc2ccccc2O)C1c1ccc(Cl)cc1Cl (some centres unmarked) | 2.21 | 9.44 | – | – | –
2 | CCCOc1ccc(C2C(C(=O)NCCc3cccc(Cl)c3)c3ccccc3C(=O)N2CCCC[C@H](NC(=O)c2ccccc2)C(N)=O)cc1 (some centres unmarked) | – | – | no fit | no fit | –
3 | CN[C@H](CN)CCCCN1Cc2ccccc2C(CNCc2ccccc2O)C1c1ccc(NCCc2ccccc2)cc1 (some centres unmarked) | – | – | – | – | IC50 [1, 4]: 1.03 µM; IC50 [2, 5]: 9.81 µM
4 | CCNc1ccc(C2C(CNCc3ccccc3O)c3ccccc3CN2CCCC[C@@H](N)CN)cc1 (some centres unmarked) | 1.14 | 38.9 | – | – | –
5 | NC[C@H](CCCN1Cc2ccccc2C(CNCc2ccccc2O)C1c1ccc(-c2ccccc2)cc1)NCCc1ccccc1 (some centres unmarked) | 8.22 | 27.6 | – | – | –
6 | CCNc1ccc(C2C(CNCc3ccccc3O)c3ccccc3CN2CC[C@@H](CN)NCCc2ccccc2)cc1 (some centres unmarked) | 3.27 | 7.07 | – | – | –
7 | NCCN[C@H](CN)CCCCN1Cc2ccccc2C(CNCc2ccccc2O)C1c1ccc(-c2ccccc2)cc1 (some centres unmarked) | 2.64 | 21.8 | – | – | –
8 | COc1ccc(CCNC(=O)C2c3ccccc3C(=O)N(CCCC[C@H](N)C(N)=O)C2c2ccc(Cl)cc2Cl)cc1 (some centres unmarked) | – | – | no fit | no fit | –
9 | CCNc1ccc(C2C(CNCc3ccccc3O)c3ccccc3CN2CCCC[C@H](N)CN)cc1 (some centres unmarked) | 0.51 | 15.1 | – | – | –
10 | COc1ccc(CNC(=O)C2c3ccccc3C(=O)N(CCCC[C@H](NC(=O)C(C)c3ccc(CC(C)C)cc3)C(N)=O)C2c2ccc(Oc3ccccc3)cc2)cc1 (some centres unmarked) | – | – | no fit | no fit | –
11 | CN[C@H](CN)CCN1Cc2ccccc2C(CNCc2ccccc2O)C1c1ccc(Cl)cc1Cl (some centres unmarked) | 5.09 | 7.85 | – | – | –
12 | NC[C@@H](N)CCN1Cc2ccccc2C(CNCc2ccccc2O)C1c1ccc(Cl)cc1Cl (some centres unmarked) | 6.33 | 8.72 | – | – | –
13 | NC(=O)[C@H](CCCCN1C(=O)c2ccccc2C(C(=O)NCCc2cccc(Cl)c2)C1c1ccc(Cl)cc1Cl)NC(=O)Cc1ccccc1 (some centres unmarked) | – | – | no fit | no fit | –
14 | CN[C@H](CN)CCCCN1Cc2ccccc2C(CNCc2ccccc2O)C1c1ccc(NCc2ccc(Cl)cc2)cc1 (some centres unmarked) | – | – | – | – | IC50 [1, 4]: 5.04 µM; IC50 [2, 5]: 22.9 µM
15 | CN[C@H](CN)CCCN1Cc2ccccc2C(CNCc2ccccc2O)C1c1ccc(-c2ccccc2)cc1 (some centres unmarked) | 3.58 | 11.2 | – | – | –
16 | CN[C@@H](CN)CCCCN1Cc2ccccc2C(CNCc2ccccc2O)C1c1ccc(-c2ccccc2)cc1 (some centres unmarked) | 1.55 | 15.2 | – | – | –
17 | CN[C@H](CN)CCCCN1Cc2ccccc2C(CNCc2ccccc2O)C1c1ccc(NCc2ccccc2)cc1 (some centres unmarked) | 0.54 | 10.5 | – | – | –
18 | CCNc1ccc(C2C(CNCc3ccccc3O)c3ccccc3CN2CC[C@@H](CN)NC)cc1 (some centres unmarked) | 3.08 | 21.3 | – | – | –
19 | COc1ccc(CNC(=O)C2c3ccccc3C(=O)N(CCCC[C@H](NC(=O)c3ccccc3)C(N)=O)C2c2cc(C(F)(F)F)cc(C(F)(F)F)c2)cc1 (some centres unmarked) | – | – | no fit | no fit | –
20 | NC[C@@H](N)CCN1Cc2ccccc2C(CNCc2ccccc2O)C1c1ccc(-c2ccccc2)cc1 (some centres unmarked) | 6.7 | 14.9 | – | – | –
21 | CCNc1ccc(C2C(CNCc3ccccc3O)c3ccccc3CN2CCCC[C@@H](CN)NCCNC)cc1 (some centres unmarked) | 1.66 | 17.6 | – | – | –
22 | COc1ccc(CCNC(=O)C2c3ccccc3C(=O)N(CCCC[C@H](NC(=O)Cc3ccccc3)C(N)=O)C2c2cc(C(F)(F)F)cc(C(F)(F)F)c2)cc1 (some centres unmarked) | – | – | no fit | no fit | –
23 | NCCN[C@H](CN)CCCCN1Cc2ccccc2C(CNCc2ccccc2O)C1c1ccc(Cl)cc1Cl (some centres unmarked) | 2.5 | 8.1 | – | – | –
24 | CNCCN[C@H](CN)CCCN1Cc2ccccc2C(CNCc2ccccc2O)C1c1ccc(-c2ccccc2)cc1 (some centres unmarked) | 2.38 | 20.2 | – | – | –
25 | COc1ccc(CNC(=O)C2c3ccccc3C(=O)N(CCCC[C@H](NC(=O)c3ccccc3)C(N)=O)C2c2ccc(Cl)cc2Cl)cc1 (some centres unmarked) | – | – | no fit | no fit | –
26 | COc1ccc(CNC(=O)C2c3ccccc3C(=O)N(CCCC[C@H](NC(=O)Cc3ccccc3)C(N)=O)C2c2ccc(Oc3ccccc3)cc2)cc1 (some centres unmarked) | – | – | no fit | no fit | –

Row | SMILES | IC50 [1, 3] [µM] | IC50 [2, 3] [µM] | MC-1 IC50 [1] | MC-4 IC50 [2] | further results
27 | COc1ccc(CCNC(=O)C2c3ccccc3C(=O)N(CCCC[C@H](NC(=O)Cc3ccccc3)C(N)=O)C2c2ccc(Cl)cc2Cl)cc1 (some centres unmarked) | – | – | no fit | no fit | –
28 | NC[C@@H](N)CCCCN1Cc2ccccc2C(CNCc2ccccc2O)C1c1ccc(Cl)cc1Cl (some centres unmarked) | 1.81 | 2.17 | – | – | –
29 | COc1ccc(CCNC(=O)C2c3ccccc3C(=O)N(CCCC[C@H](NC(=O)Cc3ccccc3)C(N)=O)C2c2ccc(Oc3ccccc3)cc2)cc1 (some centres unmarked) | – | – | no fit | no fit | –
30 | COc1ccc(CNC(=O)C2c3ccccc3C(=O)N(CCCC[C@H](N)C(N)=O)C2c2cc(C(F)(F)F)cc(C(F)(F)F)c2)cc1 (some centres unmarked) | – | – | no fit | no fit | –
31 | NCCN[C@H](CN)CCCN1Cc2ccccc2C(CNCc2ccccc2O)C1c1ccc(-c2ccccc2)cc1 (some centres unmarked) | 1.33 | 17.8 | – | – | –
32 | NC(=O)[C@@H](N)CCCCN1C(=O)c2ccccc2C(C(=O)NCCc2cccc(Cl)c2)C1c1cc(C(F)(F)F)cc(C(F)(F)F)c1 (some centres unmarked) | – | – | no fit | no fit | –
33 | NC[C@H](CCN1Cc2ccccc2C(CNCc2ccccc2O)C1c1ccc(-c2ccccc2)cc1)NCCc1ccccc1 (some centres unmarked) | 14.7 | 16.4 | – | – | –
34 | NCCN[C@H](CN)CCN1Cc2ccccc2C(CNCc2ccccc2O)C1c1ccc(Cl)cc1Cl (some centres unmarked) | 3.71 | 8.04 | – | – | –
35 | CN[C@H](CN)CCCCN1Cc2ccccc2C(CNCc2ccccc2O)C1c1ccc(NCC2CCCCC2)cc1 (some centres unmarked) | – | – | – | – | IC50 [1, 4]: 2.47 µM; IC50 [2, 5]: 15.3 µM
36 | CCNc1ccc(C2C(CNCc3ccccc3O)c3ccccc3CN2CCC[C@@H](CN)NCCNC)cc1 (some centres unmarked) | 0.91 | 13.4 | – | – | –
37 | NC(=O)[C@H](CCCCN1C(=O)c2ccccc2C(C(=O)NCCc2cccc(Cl)c2)C1c1ccc(Oc2ccccc2)cc1)NC(=O)Cc1ccccc1 (some centres unmarked) | – | – | no fit | no fit | –
38 | CN[C@H](CN)CCCCN1Cc2ccccc2C(CNCc2ccccc2O)C1c1ccc(NCCc2ccc(OC)cc2)cc1 (some centres unmarked) | – | – | – | – | IC50 [1, 4]: 1.7 µM; IC50 [2, 5]: 21 µM
39 | NC[C@H](N)CCCCN1Cc2ccccc2C(CNCc2ccccc2O)C1c1ccc(-c2ccccc2)cc1 (some centres unmarked) | 1.85 | 20.4 | – | – | –
40 | CCCOc1ccc(C2C(C(=O)NCCc3ccccc3OC)c3ccccc3C(=O)N2CCCC[C@H](NC(=O)Cc2ccccc2)C(N)=O)cc1 (some centres unmarked) | – | – | no fit | no fit | –
41 | CN[C@H](CN)CCCCN1Cc2ccccc2C(CNCc2ccccc2O)C1c1ccc(NCCOC)cc1 (some centres unmarked) | – | – | – | – | IC50 [1, 4]: 1.15 µM; IC50 [2, 5]: 18.4 µM
42 | CN[C@H](CN)CCCCN1Cc2ccccc2C(CNCc2ccccc2O)C1c1ccc(NCCC2CC3CCC2C3)cc1 (some centres unmarked) | – | – | – | – | IC50 [1, 4]: 2.6 µM; IC50 [2, 5]: 20.7 µM
43 | NC(=O)[C@H](CCCCN1C(=O)c2ccccc2C(C(=O)NCCc2cccc(Cl)c2)C1c1ccc(Cl)cc1Cl)NC(=O)c1ccccc1 (some centres unmarked) | – | – | no fit | no fit | –
44 | NC[C@H](CCN1Cc2ccccc2C(CNCc2ccccc2O)C1c1ccc(Cl)cc1Cl)NCCc1ccccc1 (some centres unmarked) | 9.06 | 6.9 | – | – | –
45 | CCCNc1ccc(C2C(CNCc3ccccc3O)c3ccccc3CN2CCCC[C@@H](CN)NC)cc1 (some centres unmarked) | – | – | – | – | IC50 [1, 4]: 0.64 µM; IC50 [2, 5]: 12.6 µM
46 | CN[C@H](CN)CCCCN1Cc2ccccc2C(CNCc2ccccc2O)C1c1ccc(NCc2ccc(OC)cc2)cc1 (some centres unmarked) | – | – | – | – | IC50 [1, 4]: 4 µM; IC50 [2, 5]: 13.4 µM
47 | NCCN[C@H](CN)CCCN1Cc2ccccc2C(CNCc2ccccc2O)C1c1ccc(Cl)cc1Cl (some centres unmarked) | 1.66 | 4.51 | – | – | –
48 | COc1ccc(CCNC(=O)C2c3ccccc3C(=O)N(CCCC[C@H](NC(=O)c3ccccc3)C(N)=O)C2c2cc(C(F)(F)F)cc(C(F)(F)F)c2)cc1 (some centres unmarked) | – | – | no fit | no fit | –
49 | CN[C@H](CN)CCCN1Cc2ccccc2C(CNCc2ccccc2O)C1c1ccc(Cl)cc1Cl (some centres unmarked) | 2.07 | 4.36 | – | – | –
50 | COc1ccccc1CCNC(=O)C1c2ccccc2C(=O)N(CCCC[C@H](NC(=O)C(C)c2ccc(CC(C)C)cc2)C(N)=O)C1c1ccc(Cl)cc1Cl (some centres unmarked) | – | – | no fit | no fit | –
51 | CCNc1ccc(C2C(CNCc3ccccc3O)c3ccccc3CN2CCCC[C@H](CN)NCCNC)cc1 (some centres unmarked) | 0.68 | 21.8 | – | – | –
52 | COc1ccc(CNC(=O)C2c3ccccc3C(=O)N(CCCC[C@H](NC(=O)Cc3ccccc3)C(N)=O)C2c2cc(C(F)(F)F)cc(C(F)(F)F)c2)cc1 (some centres unmarked) | – | – | no fit | no fit | –

Like-named read-outs stand apart in the source and are kept apart here.
